Assay results: patent publication US9682990B2, “Alcohol-, diol-, and carbohydrate-substituted indenoisoquinolines as topoisomerase I inhibitors” (Purdue Research Foundation, priority 2011, dated 2017)

Key:
Type in all cases: cell-based, human
DU-145 (Prostate) = assay: NCI Developmental Therapeutics antiproliferative assay, DU-145
Procedure: (§1) Biological Results. The indenoisoquinoline analogues were tested for antiproliferative activity in the National Cancer Institute's Developmental Therapeutics Assay against cell lines derived from approximately 60 different human tumors. […] Results are reported in Table 2 as GI50 values for selected cell lines, and overall antiproliferative potency is quantified as a mean-graph midpoint (MGM).

HOP-62 (Lung) = assay: NCI Developmental Therapeutics antiproliferative assay, HOP-62
Procedure: as §1

HCT-116 (Colon) = assay: NCI Developmental Therapeutics antiproliferative assay, HCT-116
Procedure: as §1

UACC-62 (Melanoma) = assay: NCI Developmental Therapeutics antiproliferative assay, UACC-62
Procedure: as §1

SMILES	GI50 (DU-145 (Prostate))	GI50 (HOP-62 (Lung))	GI50 (HCT-116 (Colon))	GI50 (UACC-62 (Melanoma))
O=C1c2ccccc2-c2c1c1ccccc1c(=O)n2C[C@@H](O)[C@H](O)[C@H](O)CO [Compound 17a, (2′R, 3′S, 4′R)-5,6-Dihydro-6-(2′,3′,4′,5′-tetrahydroxypentyl)-5,11-dioxo-11H-indeno[1,2-c]isoquinoline]	16.6 µM			
O=C1c2ccccc2-c2c1c1ccccc1c(=O)n2C[C@H](O)[C@H](O)[C@H](O)CO [Compound 17b, (2′S,3′S,4′R)-5,6-Dihydro-6-(2′,3′,4′,5′-tetrahydroxypentyl)-5,11-dioxo-11H-indeno[1,2-c]isoquinoline]	1.32 µM	2.95 µM	3.39 µM	
O=C1c2ccccc2-c2c1c1ccccc1c(=O)n2C[C@H](O)[C@@H](O)[C@H](O)CO [Compound 17d, (2′S,3′R,4′R)-5,6-Dihydro-6-(2′,3′,4′,5′-tetrahydroxypentyl)-5,11-dioxo-11H-indeno[1,2-c]isoquinoline]			3.39 µM	2.88 µM
O=C1c2ccccc2-c2c1c1ccccc1c(=O)n2C[C@@H](O)[C@@H](O)[C@H](O)CO [Compound 17e, (2′R,3′R,4′R)-5,6-Dihydro-6-(2′,3′,4′,5′-tetrahydroxypentyl)-5,11-dioxo-11H-indeno[1,2-c]isoquinoline]	3.98 µM		3.39 µM	
